Laboratory results: US20030139352A1, “Inhibitors of ABC drug transporters in cancer cells” (priority 2001, published 2003)

Protein sequences, listed by entry. Tags and fused reporters are not part of them.
UniProt P08183, whole entry: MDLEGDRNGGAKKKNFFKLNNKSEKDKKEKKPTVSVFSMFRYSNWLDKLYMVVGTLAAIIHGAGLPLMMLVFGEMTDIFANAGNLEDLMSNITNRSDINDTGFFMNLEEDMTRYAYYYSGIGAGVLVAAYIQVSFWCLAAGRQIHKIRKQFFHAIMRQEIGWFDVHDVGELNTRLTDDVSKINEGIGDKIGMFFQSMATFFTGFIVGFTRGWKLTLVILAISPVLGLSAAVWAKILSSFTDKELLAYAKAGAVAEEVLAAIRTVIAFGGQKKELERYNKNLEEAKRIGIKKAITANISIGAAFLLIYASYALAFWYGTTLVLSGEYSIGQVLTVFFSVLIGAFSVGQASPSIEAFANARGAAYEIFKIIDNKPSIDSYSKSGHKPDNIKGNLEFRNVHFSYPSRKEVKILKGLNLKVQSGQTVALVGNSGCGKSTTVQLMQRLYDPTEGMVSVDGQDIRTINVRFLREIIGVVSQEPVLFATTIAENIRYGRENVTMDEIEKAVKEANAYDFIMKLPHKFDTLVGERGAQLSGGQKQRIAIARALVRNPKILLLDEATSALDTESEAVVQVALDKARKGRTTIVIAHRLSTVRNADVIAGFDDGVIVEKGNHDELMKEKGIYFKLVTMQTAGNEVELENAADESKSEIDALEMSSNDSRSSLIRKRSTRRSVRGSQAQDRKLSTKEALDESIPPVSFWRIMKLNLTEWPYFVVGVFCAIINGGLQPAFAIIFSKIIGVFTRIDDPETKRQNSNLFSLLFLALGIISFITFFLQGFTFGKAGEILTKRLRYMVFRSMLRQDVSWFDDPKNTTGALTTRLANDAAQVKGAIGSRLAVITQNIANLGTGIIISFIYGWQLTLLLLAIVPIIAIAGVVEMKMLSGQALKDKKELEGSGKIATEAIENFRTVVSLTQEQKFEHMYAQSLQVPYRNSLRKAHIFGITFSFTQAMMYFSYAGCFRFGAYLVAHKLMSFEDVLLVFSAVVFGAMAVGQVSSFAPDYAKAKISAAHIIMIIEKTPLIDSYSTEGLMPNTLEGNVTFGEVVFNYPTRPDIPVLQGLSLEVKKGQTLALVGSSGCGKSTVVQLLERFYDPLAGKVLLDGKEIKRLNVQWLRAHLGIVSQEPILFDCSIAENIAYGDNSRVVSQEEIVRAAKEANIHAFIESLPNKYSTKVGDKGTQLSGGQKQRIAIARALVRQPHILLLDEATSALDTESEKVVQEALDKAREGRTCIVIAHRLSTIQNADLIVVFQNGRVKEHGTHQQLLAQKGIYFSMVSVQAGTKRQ

Tests used:
[1] = molecular target: T1, human PGP (Homo sapiens, UniProt P08183); conditions: 15B-J (PGP), 10 μM in donor
[2] = molecular target: T1, human PGP; test: in vitro; conditions: LLC-PK1, pH 7.2
[3] = in vitro; conditions: pig, LLC-PK1, pH 7.2

With `CC(=O)O[C@H]1C(=O)[C@@]2(C)[C@H]([C@H](OC(=O)c3ccccc3)[C@]3(O)C[C@H](OC(=O)[C@H](O)[C@@H](NC(=O)c4ccccc4)c4ccccc4)C(C)=C1C3(C)C)[C@]1(OC(C)=O)CO[C@@H]1C[C@@H]2O` [Taxol, taxol] the “pmoles in Receiver” value ([1]; A→B, 30 min) was 6 pmol, the “pmoles in Receiver” value ([1]; A→B, 120 min) was 24 pmol and the “pmoles in Receiver” value ([1]; B→A, 30 min) was 24 pmol. The “pmoles in Receiver” value ([1]; B→A, 120 min) was 135 pmol, the efflux ratio at 30 min, 10 μM [2] was 3.8 and the efflux ratio at 60 min, 10 μM [2] was 2.6. The efflux ratio at 90 min, 10 μM [2] was 4.4, the efflux ratio at 120 min, 10 μM [2] was 5.7 and the efflux ratio at 30 min, 10 μM [3] was 1.1. The efflux ratio at 60 min, 10 μM [3] was 1.4, the efflux ratio at 90 min, 10 μM [3] was 1.6 and the efflux ratio at 120 min, 10 μM [3] was 1.9.

Read-outs that look alike come from different tables or passages of the source.
